{"source": "paper PMC12907944", "about": "“Targeting RAD51-BRCA2 Interaction to Enhance Synthetic Lethality with Olaparib in Pancreatic Cancer: Development of a Novel Phenyl Furan-Quinoline-Carboxylic Acid Series” (ACS Medicinal Chemistry Letters, 2026)", "key": {"kinetic solubility": {"experiment": "kinetic solubility", "format": "physicochemical", "conditions": "PBS"}, "HeLa Kyoto cells": {"tested_on": "HeLa Kyoto cells", "conditions": "50 μM, ref 4 (Scott DE et al); cited from earlier work"}}}
{"smiles": "COc1ccc([C@H](C)NC(=O)[C@@H]2C[C@@H](O)CN2C(=O)CNC(=O)c2ccc3cc(F)ccc3n2)c(Cl)c1", "values": [{"measurement": "kinetic solubility", "setting": "kinetic solubility", "result": "171 ± 5", "unit": "µM"}, {"measurement": "% HR inhibition", "setting": "HeLa Kyoto cells", "result": "> 90", "unit": "%"}]}
